Experimental data taken from paper PMC7051184, “C9orf72 arginine-rich dipeptide repeat proteins disrupt karyopherin-mediated nuclear import” (eLife, 2020).

Experiments:
[1] = test system: BSA; assay: Bead halo assay, biotinylated BSA-coated beads (non-specific control); details: AF488-labeled, 200 nM, binding buffer
Method: Purified WT importin β (pKW485) diluted to 10 µM in XB was combined with 10-molar excess of Alexa Fluor 647 NHS ester (ThermoFisher), using freshly-prepared 10 mM dye in anhydrous DMSO. After incubation on ice for 2 hr, the sample was dialyzed in PBS and concentrated on 30kD MWCO filter (Millipore Sigma) before storage. A similar protocol was used to label BSA with 10-molar excess Sulfo-NHS-LC-biotin (ThermoFisher), followed by dialysis in PBS.
The bead halo assay was carried out as described with minor modifications ([Patel and Rexach, 2008]), using […] polystyrene beads coated with neutravidin (for biotinylated proteins) or glutathione (for GST-fusion proteins) (Spherotech, Lake Forest, IL). Beads were coated overnight at 4°C at saturating concentrations per manufacturers’ instructions and rinsed 2x in binding buffer (20 mM HEPES [pH 7.4], 150 mM KOAc, 2 mM Mg(OAc)2, 1 mM DTT, 0.1% Tween-20). Immediately prior to the assay, fluorescent bait proteins and beads were combined with 4x assay buffer (40 mM EDTA, 40 mg/ml BSA, 500 mM NaCl, and 0.2% Tween) to a total of 40 µL per well, in optical glass-bottom 96-well plates (Cellvis, Mountain View, CA). Reactions were allowed to equilibrate at room temperature for a minimum of 30 min prior to imaging at 100x on an LSM800 confocal microscope (Zeiss, Oberkochen, Germany). […]

[2] = test system: Nup54; assay: DPR aggregation assay and western blot, Nup54; type: biochemical, human; details: 100 µM 10mer in 2.5 mg/ml HEK lysate; Blot 1; normalized to untreated HEK
Method: Supernatant and pellet fractions (for all 5 DPRs, and control/buffer only) were prepared as in the nuclear transport assays, by adding 100 µM 10mers to 2.5 mg/ml HEK lysate in 100 µL TRB. Supernatants were boiled in Laemmli (BioRad) for 5 min. Pellets were boiled for 15 min followed by sonication in order to fully disperse aggregates for SDS-PAGE. Equal volumes of supernatant and pellet fractions were run on 4–12% Bolt Bis-Tris Plus gels (ThermoFisher), transferred to nitrocellulose membrane using an iBlot2 dry blotting system (ThermoFisher). Protein loading was analyzed by BLOT-Faststain (G-biosciences, St. Louis, MO), according to the manufacterers’ instructions. For immunodetection, membranes were blocked with 5% non-fat milk in TBST and probed by sequential incubation with the primary antibodies as detailed in the table below. Detection was by HRP-conjugated secondary antibodies/chemiluminescence using an ImageQuant LAS 4000 system (GE, Chicago, IL). To permit sequential probing of membranes without stripping, signals were quenched by incubation with prewarmed 30% H20_2 for 20 min ([Sennepin et al., 2009]). Band intensities were measured by ImageQuant software. For pellet vs. supernatant fractions, all were expressed as percent untreated control. […]

[3] = test system: Nup62; assay: DPR aggregation assay and western blot, Nup62; type: biochemical, human; details: 100 µM 10mer in 2.5 mg/ml HEK lysate, normalized to untreated HEK
Method: (§1) Supernatant and pellet fractions (for all 5 DPRs, and control/buffer only) were prepared as in the nuclear transport assays, by adding 100 µM 10mers to 2.5 mg/ml HEK lysate in 100 µL TRB. Supernatants were boiled in Laemmli (BioRad) for 5 min. Pellets were boiled for 15 min followed by sonication in order to fully disperse aggregates for SDS-PAGE. Equal volumes of supernatant and pellet fractions were run on 4–12% Bolt Bis-Tris Plus gels (ThermoFisher), transferred to nitrocellulose membrane using an iBlot2 dry blotting system (ThermoFisher). Protein loading was analyzed by BLOT-Faststain (G-biosciences, St. Louis, MO), according to the manufacterers’ instructions. For immunodetection, membranes were blocked with 5% non-fat milk in TBST and probed by sequential incubation with the primary antibodies as detailed in the table below. Detection was by HRP-conjugated secondary antibodies/chemiluminescence using an ImageQuant LAS 4000 system (GE, Chicago, IL). To permit sequential probing of membranes without stripping, signals were quenched by incubation with prewarmed 30% H20_2 for 20 min ([Sennepin et al., 2009]). Band intensities were measured by ImageQuant software. For pellet vs. supernatant fractions, all were expressed as percent untreated control. For blots in Figure 1E, samples were run on 4–20% SDS PAGE minigels (ThermoFisher) and blotted to PVDF membranes (Immun-Blot PVDF, Bio-Rad) using the Bio-Rad TransBlot Turbo apparatus, and probed as above. The chemiluminescence signal was captured with a Bio-Rad ChemiDoc XRS+ digital imaging system.

[4] = test system: hnRNPA2/B1; assay: DPR aggregation assay and western blot, hnRNPA2/B1; type: biochemical, human; details: normalized to untreated HEK cells on the same membrane
Method: as §1

[5] = test system: Nup98; assay: DPR aggregation assay and western blot, Nup98; type: biochemical, human; details: 100 µM 10mer in 2.5 mg/ml HEK lysate, normalized to untreated HEK
Method: as §1

[6] = test system: TDP-43; assay: DPR aggregation assay and western blot, TDP-43; type: biochemical, human; details: normalized to untreated HEK cells on the same membrane
Method: as §1

[7] = test system: RPS6; assay: DPR aggregation assay and western blot, RPS6; type: biochemical, human; details: for Rps6 band density, % untr control: Fig 5-suppl 3C, normalized to untreated HEK on same membrane; for RPS6 band density, % control: normalized to untreated HEK cells on the same membrane;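 on Rps6 band density, % untr control: RNA rows contain added 20 µg total HEK RNA while no-RNA rows lack it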
Method: as §1

[8] = test system: RCC1; assay: DPR aggregation assay and western blot, RCC1 (negative control); type: biochemical, human; details: 100 µM 10mer in 2.5 mg/ml HEK lysate, normalized to untreated HEK
Method: as §1

[9] = test system: FUS; assay: DPR aggregation assay and western blot, FUS; type: biochemical, human; details: normalized to untreated HEK cells on the same membrane
Method: as §1

[10] = test system: DDX3X; assay: DPR aggregation assay and western blot, DDX3X; type: biochemical, human; details: normalized to untreated HEK cells on the same membrane
Method: as §1

[11] = test system: Rps25; assay: DPR aggregation assay and western blot, Rps25; type: biochemical, human; details: Fig 5-suppl 3C, normalized to untreated HEK on same membrane;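 further: RNA rows contain added 20 µg total HEK RNA while no-RNA rows lack it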
Excerpt: Supplement elife-51685-fig5-data1.xlsx, sheet "Figure 5-figure suppl 3" | column: Rps25

[12] = test system: hnRNPA1; assay: DPR aggregation assay and western blot, hnRNPA1; type: biochemical, human; details: normalized to untreated HEK cells on the same membrane
Method: as §1

[13] = Pellet, no RNA (Untreated), blot 1
[14] = Pellet, no RNA (Untreated), blot 2
[15] = Supernatant, no RNA (Untreated), blot 1
[16] = Supernatant, no RNA (Untreated), blot 2

N=C(N)NCCC[C@H](NC(=O)CNC(=O)[C@H](CCCNC(=N)N)NC(=O)CNC(=O)[C@H](CCCNC(=N)N)NC(=O)CNC(=O)[C@H](CCCNC(=N)N)NC(=O)CNC(=O)[C@H](CCCNC(=N)N)NC(=O)CNC(=O)[C@H](CCCNC(=N)N)NC(=O)CNC(=O)[C@H](CCCNC(=N)N)NC(=O)CNC(=O)[C@H](CCCNC(=N)N)NC(=O)CNC(=O)[C@H](CCCNC(=N)N)NC(=O)CNC(=O)[C@H](CCCNC(=N)N)NC(=O)CN)C(=O)O [GR10]
Binding to BSA-coated beads [1]: modest non-specific binding | Nup54 band density, Pellet [2]: 162.4 % control | Nup54 band density, Supernatant [2]: 87.0 % control | Nup62 band density, Pellet ([3]; Blot 1): 233.3 % control | Nup62 band density, Supernatant ([3]; Blot 1): 189.9 % control | Nup62 band density, Pellet ([3]; Blot 2): 207.3 % control | Nup62 band density, Supernatant ([3]; Blot 2): 93.1 % control | hnRNPA2/B1 band density, % control ([4]; Pellet, Blot 1): 384.0 % control | hnRNPA2/B1 band density, % control ([4]; Pellet, Blot 2): 231.4 % control | hnRNPA2/B1 band density, % control ([4]; Supernatant, Blot 1): 98.7 % control | hnRNPA2/B1 band density, % control ([4]; Supernatant, Blot 2): 57.3 % control | Nup98 band density, Pellet ([5]; Blot 1): 119.0 % control | Nup98 band density, Supernatant ([5]; Blot 1): 59.8 % control | Nup98 band density, Pellet ([5]; Blot 2): 141.6 % control | Nup98 band density, Supernatant ([5]; Blot 2): 58.7 % control | TDP43 band density, % control ([6]; Pellet, Blot 1): 671.3 % control | TDP43 band density, % control ([6]; Pellet, Blot 2): 218.4 % control | TDP43 band density, % control ([6]; Supernatant, Blot 1): 72.6 % control | TDP43 band density, % control ([6]; Supernatant, Blot 2): 58.6 % control | Rps6 band density, % untr control ([7]; Pellet, RNA, blot 1): 433.20% | Rps6 band density, % untr control ([7]; Pellet, RNA, blot 2): 302.43% | Rps6 band density, % untr control [7, 13]: 423.46% | Rps6 band density, % untr control [7, 14]: 341.30% | Rps6 band density, % untr control ([7]; Supernatant, RNA, blot 1): 7.91% | Rps6 band density, % untr control ([7]; Supernatant, RNA, blot 2): 9.81% | Rps6 band density, % untr control [7, 15]: 2.94% | Rps6 band density, % untr control [7, 16]: 3.12% | RPS6 band density, % control ([7]; Pellet, Blot 1): 304.8 % control | RPS6 band density, % control ([7]; Pellet, Blot 2): 380.9 % control | RPS6 band density, % control ([7]; Supernatant, Blot 1): 9.4 % control | RPS6 band density, % control ([7]; Supernatant, Blot 2): 10.9 % control | RCC1 band density, Pellet ([8]; Blot 1): 44.8 % control | RCC1 band density, Supernatant ([8]; Blot 1): 103.4 % control | RCC1 band density, Pellet ([8]; Blot 2): 154.7 % control | RCC1 band density, Supernatant ([8]; Blot 2): 123.6 % control | FUS band density, % control ([9]; Pellet, Blot 1): 51.8 % control | FUS band density, % control ([9]; Pellet, Blot 2): 25.7 % control | FUS band density, % control ([9]; Supernatant, Blot 1): 97.0 % control | FUS band density, % control ([9]; Supernatant, Blot 2): 123.4 % control | DDX3X band density, % control ([10]; Pellet, Blot 1): 116.9 % control | DDX3X band density, % control ([10]; Pellet, Blot 2): 149.1 % control | DDX3X band density, % control ([10]; Supernatant, Blot 1): 20.5 % control | DDX3X band density, % control ([10]; Supernatant, Blot 2): 11.8 % control | Rps25 band density, % untr control ([11]; Pellet, RNA, blot 1): 295.74% | Rps25 band density, % untr control ([11]; Pellet, RNA, blot 2): 495.87% | Rps25 band density, % untr control [11, 13]: 288.08% | Rps25 band density, % untr control [11, 14]: 470.22% | Rps25 band density, % untr control ([11]; Supernatant, RNA, blot 1): 7.73% | Rps25 band density, % untr control ([11]; Supernatant, RNA, blot 2): 9.04% | Rps25 band density, % untr control [11, 15]: 1.64% | Rps25 band density, % untr control [11, 16]: 0.96% | hnRNPA1 band density, % control ([12]; Pellet, Blot 1): 289.8 % control | hnRNPA1 band density, % control ([12]; Pellet, Blot 2): 369.6 % control | hnRNPA1 band density, % control ([12]; Supernatant, Blot 1): 84.7 % control | hnRNPA1 band density, % control ([12]; Supernatant, Blot 2): 67.3 % control
